Experimental data from US8324345B2, “HLA-binding peptide, precursor thereof, DNA fragment and recombinant vector encoding the same” (priority 2006, dated 2012).

Molecular target: HLA-A2 molecule (the product of HLA-A*0201 gene) (Homo sapiens, UniProt P04439, D140Y/D185E/D98H/E176V/E277Q/G131W/G231S/I119V/I121R/I166T/I218V/L300P/L318F/N151K/N90K/P208A/P217A/Q86G/Q94H/R138H/R169H/T345S)
Assay: Binding experiment of the peptides to an HLA-A0201 molecule (JY cells, flow cytometry)

CC[C@H](C)[C@H](NC(=O)[C@H](CC(C)C)NC(=O)[C@@H](N)CCCNC(=N)N)C(=O)N[C@H](C(=O)N[C@H](C(=O)N[C@@H](CC(N)=O)C(=O)N1CCC[C@H]1C(=O)N[C@H](C(=O)N[C@H](C(=O)O)C(C)C)[C@@H](C)CC)C(C)C)[C@@H](C)O [compound 31]
Kd: 2.29 µM
